Test results: publication PMC12462173, “Evaluation of in vitro drug-drug interactions of ivermectin and antimalarial compounds” (Malaria Journal, 2025)

Tested on: pooled human liver microsomes
Method: Pooled human liver microsomes (containing 20 mg/mL protein) were thawed on ice, and the reactions were conducted in a 96-well plate (1 mL, Agilent Technologies, Santa Clara, CA, USA). The assay buffer consisted of 0.1 M potassium phosphate buffer (pH 7.4). The premix solutions for each condition were prepared with specific volumes of each component, as outlined in Table S1. The premix solution was prepared by combining ivermectin, antimalarial drug, microsomes, and buffer. Three replicates of each premix solution were prepared, and 475 µL of each premix was transferred into separate wells of the 96-well plate. The plate was incubated at 37 °C for 5 min with gentle shaking (300 rpm). Following incubation, 25 µL of 20 mM NADPH was added to each well, and the solution was mixed thoroughly. The final incubation mixture (500 µL) contained a total microsome concentration of 0.53 mg/mL. To monitor the metabolism of ivermectin, 50 µL from each well was collected at 0, 15, 30, 45, 60, 90, 120, and 150 min and transferred to a new plate containing 200 µL of cold acetonitrile and 100 ng/mL of ivermectin-D2 (internal standard). The collection plate was kept on ice during sampling. After sample collection, the plate was sealed and centrifuged at 1,100 × g for 15 min at 4 °C. A 100 µL aliquot of the clear supernatant was transferred to a new plate for immediate LC–MS analysis.
The LC system consisted of an Agilent 1260 quaternary pump, an Agilent 1260 autosampler (set at 6 °C), and an Agilent 1290 column compartment (set at 40 °C). Five µL of sample was analysed on an Acquity UPLC HSS T3 reversed-phase column (2.1 × 100 mm, 1.8 μm) with a precolumn (2.1 × 5 mm, 1.8 μm) under a linear gradient. The mobile phase consisted of water with 10 mM ammonium acetate and 0.1% formic acid (A) and acetonitrile:water (95:5, v/v) with 10 mM ammonium acetate and 0.1% formic acid (B), at a flow rate of 0.3 mL/min. […] Data were acquired from m/z 100–1,000 in TOF–MS scan mode using Analyst TF Software 1.8, and ivermectin quantification (ivermectin peak area/internal standard peak area) was performed with MultiQuant Software (Sciex, Framingham, MA, USA) with a high resolution TOF–MS scan mode.
The metabolism rate of ivermectin was evaluated based on the normalized peak area (%) of ivermectin over a total of 150 min of incubation. […] This normalized value was further adjusted relative to the pre-incubation ivermectin peak area (zero-minute sample) within a sample collection series, resulting in final ivermectin concentrations expressed as relative peak areas. […] Furthermore, the relative difference (%) in in vitro metabolism rate (i.e. difference between regression slopes) for ivermectin alone and when co-incubated with an antimalarial was calculated as shown in Eq. 1.

DDI effect on the in vitro metabolism rate of ivermectin (class in words): little impact
Intercept (95%CI) of linear regression of ivermectin relative peak area (%), combination (human, pH 7.4): 97.6 (95.7-99.4)
Relative difference (95% CI) in in vitro metabolism rate of ivermectin, alone vs co-incubated with the antimalarial (human, pH 7.4): 7.72% (1.46–13.98)
Slope (95%CI) of linear regression of ivermectin relative peak area (%) over time, combination (human, pH 7.4): -0.40 (-0.42 to -0.38)
SMILES: COc1cc(NC(C)CCCN)c2ncccc2c1 (stereo not shown) [Primaquine]
